Data: EP4847510A1, “TETRACYCLIC COMPOUND, AND PREPARATION METHOD, PHARMACEUTICAL COMPOSITION, AND USE THEREOF” (dated 2026)
pEC50, pIC50, pKi: −log10 of the molar value.

Protein sequences, listed by entry. Tags and fused reporters are not part of them.
UniProt P28223, whole entry: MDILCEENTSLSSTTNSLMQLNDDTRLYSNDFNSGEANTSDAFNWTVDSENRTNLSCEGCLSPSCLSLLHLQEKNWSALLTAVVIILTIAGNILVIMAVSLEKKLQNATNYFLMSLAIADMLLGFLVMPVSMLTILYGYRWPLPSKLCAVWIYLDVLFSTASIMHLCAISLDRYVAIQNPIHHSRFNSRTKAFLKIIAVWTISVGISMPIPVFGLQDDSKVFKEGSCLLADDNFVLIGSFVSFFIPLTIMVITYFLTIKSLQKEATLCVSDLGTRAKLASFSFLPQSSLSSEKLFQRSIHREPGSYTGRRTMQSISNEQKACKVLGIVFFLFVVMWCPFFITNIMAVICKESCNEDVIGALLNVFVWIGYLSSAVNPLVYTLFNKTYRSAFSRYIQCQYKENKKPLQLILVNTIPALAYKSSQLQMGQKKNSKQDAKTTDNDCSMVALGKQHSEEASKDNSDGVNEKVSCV
UniProt P10635, whole entry: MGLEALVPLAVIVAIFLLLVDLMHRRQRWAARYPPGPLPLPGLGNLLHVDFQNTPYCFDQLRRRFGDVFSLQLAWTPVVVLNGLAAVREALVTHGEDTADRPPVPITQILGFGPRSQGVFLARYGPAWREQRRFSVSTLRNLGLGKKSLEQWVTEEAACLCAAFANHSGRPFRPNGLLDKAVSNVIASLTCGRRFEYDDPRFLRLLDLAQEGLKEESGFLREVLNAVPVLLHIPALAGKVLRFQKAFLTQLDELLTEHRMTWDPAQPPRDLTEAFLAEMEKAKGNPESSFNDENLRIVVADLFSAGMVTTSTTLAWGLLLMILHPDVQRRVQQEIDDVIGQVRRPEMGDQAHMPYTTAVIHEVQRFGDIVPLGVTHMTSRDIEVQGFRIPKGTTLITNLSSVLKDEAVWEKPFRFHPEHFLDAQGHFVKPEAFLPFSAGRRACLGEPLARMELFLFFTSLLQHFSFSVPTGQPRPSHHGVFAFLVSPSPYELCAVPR

Experiments:
C57BL/6J male mice = test: Animal depression-like behavior test, forced swimming test (FST); conditions: result in words, vs solvent control
[1] = Metabolic property test 5.1, plasma pharmacokinetics after single intraperitoneal injection; conditions: for AUCINF / AUClast / Cmax / T1/2 / Tmax: mouse plasma, 15 mg/kg single intraperitoneal injection
5HT2A receptor [2] = target: T1, 5HT2A receptor (Homo sapiens, UniProt P28223); test: Affinity assay for 5-HT2A receptor, radioligand competition with [3H]-ketanserin; conditions: read-out: [3H]Ketanserin Ki; membranes of HEK293 cells stably expressing the 5-HT2A receptor
[3] = Mouse plasma protein binding (PPB), free fraction Fu
5HT2A receptor [4] = target: T1, 5HT2A receptor; test: Downstream beta-arrestin functional activity assay, method 1 (NanoBit); conditions: for β-arrestin Emax%: method 1, highest concentration of 5-HT = 100%; for pEC50: read-out: β-arrestin EC50, method 1, HEK293 cells
CYP2D6 enzyme = CYP2D6 enzyme (Homo sapiens, UniProt P10635); test: Drug interaction test, CYP2D6 inhibition in human liver microsomes; conditions: read-out: CYP2D6 inhibition IC50; human liver microsomes 0.1 mg/mL, dextromethorphan probe substrate
5HT2A receptor [5] = target: T1, 5HT2A receptor; test: Downstream calcium flux functional activity assay, method 2 (HEK293 cells transiently transfected); conditions: for Ca^2+ flux Assay Emax%: method 2, highest concentration of 5-HT = 100%; for pEC50: read-out: Ca^2+ flux Assay EC50, method 2, transiently transfected HEK293 cells
[6] = Metabolic property test 5.2, plasma pharmacokinetics after intravenous injection and oral gavage
5HT2A receptor [7] = target: T1, 5HT2A receptor; test: Downstream beta-arrestin functional activity assay, method 2 (NanoBret); conditions: for β-arrestin Emax%: method 2, highest concentration of 5-HT = 100%; for pEC50: read-out: β-arrestin EC50, method 2, HEK293 cells
5HT2A receptor [8] = target: T1, 5HT2A receptor; test: Downstream calcium flux functional activity assay, method 1 (HEK293 cells stably expressing the receptor); conditions: for Ca^2+ flux Assay Emax%: method 1, highest concentration of 5-HT = 100%; for pEC50: read-out: Ca^2+ flux Assay EC50, method 1, HEK293-5HT2AR cells
C57BL/6J mice = test: Head-twitch response (HTR) experiment on mice; conditions: test substance 50 mg/kg intraperitoneally

| Structure (SMILES) | AUCINF [1] | AUClast [1] | Cmax [1] | T1/2 [1] | Tmax [1] | pKi (5HT2A receptor [2]) | Mouse PPB Fu [3] | β-arrestin Emax% (5HT2A receptor [4]) | pEC50 (5HT2A receptor [4]) | pIC50 (CYP2D6 enzyme) | Ca^2+ flux Assay Emax% (5HT2A receptor [5]) | pEC50 (5HT2A receptor [5]) | Ca^2+ flux Assay Emax% (5HT2A receptor [8]) | pEC50 (5HT2A receptor [8]) | further results |
| --- | --- | --- | --- | --- | --- | --- | --- | --- | --- | --- | --- | --- | --- | --- | --- |
| CNC1(c2ccccc2Cl)CCCCC1=O (stereo not drawn) |  |  |  |  |  |  |  |  |  |  |  |  |  |  | effect on immobility time / depression-like behavior of mice (C57BL/6J male mice): significantly reduced the immobility time |
| CN1CCN2c3c(cccc31)[C@@H]1CN(CCCc3ncccc3Cl)CC[C@@H]12 | 774 ng·h/mL | 763 ng·h/mL | 334 ng/mL | 76.2 min | 4.98 min | 7.91 | 11.3% | 14.38% | 7.53 | 5.89 | 18.2% | < 4.00 |  |  | plasma free exposure levels ([1]; result in words, comparison at similar plasma exposure levels): higher plasma free exposure levels |
| O=C1CN2c3c(cccc3[C@@H]3CN(CCCc4c(F)ccc5c4OCC5)CC[C@@H]32)N1 |  |  |  |  |  |  |  |  |  |  | 12.92% | < 4.00 |  |  | F ([6]; P.O 10 mg/kg vs i.v 2 mg/kg, F(%) = (AUC0-inf-PO/AUC0-inf-IV)/(DosePO/DoseIV) × 100): 24%; AUC 0-inf ([6]; P.O 10 mg/kg, mouse plasma): 648 ng·h/mL; AUC0-t ([6]; P.O 10 mg/kg, mouse plasma): 616 ng·h/mL; Cmax ([6]; P.O 10 mg/kg, mouse plasma): 242 ng/mL; Tmax ([6]; P.O 10 mg/kg, mouse plasma): 15 min; t1/2 ([6]; P.O 10 mg/kg, mouse plasma): 108 min; AUC 0-inf ([6]; i.v 2 mg/kg, mouse plasma): 532 ng·h/mL; AUC0-t ([6]; i.v 2 mg/kg, mouse plasma): 530 ng·h/mL; C1 ([6]; i.v 2 mg/kg, mouse plasma): 62.7 mL/min/kg; Vd ([6]; i.v 2 mg/kg, mouse plasma): 1.96 L/kg; t1/2 ([6]; i.v 2 mg/kg, mouse plasma): 40.2 min; β-arrestin Emax% (5HT2A receptor [7]): 53.0%; pEC50 (5HT2A receptor [7]): 7.01 |
| COc1ccsc1CCCN1CC[C@H]2[C@@H](C1)c1cccc3c1N2CCN3C |  |  |  |  |  | 7.76 |  | 32.86% | 7.70 | 5.75 |  |  | 6.79% | < 4.00 |  |
| CN1CCN2c3c(cccc31)[C@@H]1CN(CCCc3cccc4cccnc34)CC[C@@H]12 |  |  |  |  |  | 7.41 |  | 43.71% | 7.56 | 7.09 |  |  | 33.85% | < 4.00 |  |

Second part, led by results:

| AUCINF [1] | AUClast [1] | Cmax [1] | T1/2 [1] | Tmax [1] | pKi (5HT2A receptor [2]) | Mouse PPB Fu [3] | β-arrestin Emax% (5HT2A receptor [4]) | pEC50 (5HT2A receptor [4]) | pIC50 (CYP2D6 enzyme) | Ca^2+ flux Assay Emax% (5HT2A receptor [5]) | pEC50 (5HT2A receptor [5]) | Ca^2+ flux Assay Emax% (5HT2A receptor [8]) | pEC50 (5HT2A receptor [8]) | Structure (SMILES) | further results |
| --- | --- | --- | --- | --- | --- | --- | --- | --- | --- | --- | --- | --- | --- | --- | --- |
| 1071 ng·h/mL | 1031 ng·h/mL | 346 ng/mL | 96 min | 15 min | 7.71 | 2.48% | -6.09% | < 4.00 | 6.46 |  |  |  |  | COc1ccccc1CCCN1CCC2C(C1)c1cccc3c1N2CCN3C (stereo not drawn) | effect on immobility time / depression-like behavior of mice (C57BL/6J male mice): no significant effect |
| 1427 ng·h/mL | 1422 ng·h/mL | 344 ng/mL | 180 min | 1.98 min | 7.73 | 1.96% |  |  | 6.22 |  |  | 0.88% | < 4.00 | CN1CCN2c3c(cccc31)[C@@H]1CN(CCCc3cccc4c3OCO4)CC[C@@H]12 |  |
|  |  |  |  |  | 7.58 |  |  |  |  | 61.4% | 4.04 |  |  | CCN1CCN2c3c(cccc31)[C@@H]1CN(CCCc3cccc4c3OCC4)CC[C@@H]12 | Number of mouse head twitches, observed immediately after administration (for 70 min), Median (C57BL/6J mice; 0-70 min post-dose): 8.5 times; Number of mouse head twitches, observed 24 h after administration (for 30 min), Median (C57BL/6J mice; 24 h post-dose): 2 times; β-arrestin Emax% (5HT2A receptor [7]): 74.33%; pEC50 (5HT2A receptor [7]): 6.48 |
